# Bioassay records deposited in PubChem BioAssay by ICCB-Longwood Screening Facility, Harvard Medical School.
# Most compounds without a hit are left out; they make up all but 0.46% or so of the library.
# GIV Gai3 FP – inhibitors of GIV peptide binding to Galpha-i3, primary screen, biochemical, fluorescence polarization, FITC-GIV GBA peptide, rat Galphai3; 90 min; stronger effect = lower value; scaled: aluminum fluoride 0%, vehicle 100%; percent of control (FP), % (test concentration not listed); 0.42% of 210,000 active; AID 1224905, 2016;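 active = replicate mean at 85% of control or lower, very high polarization wells dropped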;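 also: wells of about 15 µL received 100 nL stock; the first replicate is given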
# HCMV UL50-53 inh – cytomegalovirus nuclear egress complex inhibition; inhibition, % (no concentration beside the values); AID 1918969; 190,000 compounds, 0.15% hits; HTRF UL50-UL53 interaction, normalized percent inhibition; in the data active = inhibition above about 27%, passing the limit was not always enough
# GIV Gai FP conf – confirmation of inhibitors of GIV binding to rat Galpha-i3. shares compounds with GIV Gai3 FP. FITC-GIV peptide binding to Galphai3, fluorescence polarization; stronger effect = lower value. fluorescence polarization, mP at 100 µM. 580 compounds, 38% hits. AID 1259350;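 active = inhibition score of 15 or more, meaning 100 minus mean polarization as percent of control over three replicates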
# GIV Gai AS conf – GIV-Galpha-i3 inhibition, AlphaScreen confirmation; shares compounds with GIV Gai3 FP; AlphaScreen Galphai3-GIV binding, purified proteins, 90 min; stronger effect = lower value; AlphaScreen counts at 100 µM; 580 compounds, 39% hits; AID 1259351;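 active = inhibition score at or above a set limit, where the score is 100 minus the three-replicate mean percent of control signal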
# An asterisk follows results filed as active; . = no result; ! = not active in a repeat.
1	COC(=O)c1cc(S(=O)(=O)N2CCCC2C(=O)N2CCOCC2)cn1C (configuration not stated)
2	COc1ccc(C2c3sc(=O)[nH]c3SC3C(=O)N(c4ccccc4)C(=O)C32)cc1 (configuration not stated)
3	O=C1NC(=O)C2C1Sc1[nH]c(=O)sc1C2c1ccco1 (configuration not stated)
4	CCc1nc2oc(C(=O)c3ccc(Cl)cc3)c(N)c2c2c1COC(C)(C)C2
5	CCc1nc2oc(C(=O)c3ccccc3)c(N)c2c2c1COC(C)(C)C2
6	c1ccc(-c2csc3ncnc(N4CCC(N5CCCCCC5)CC4)c23)cc1
7	CCOc1ccccc1N1C(=O)C2C3c4ccccc4C(C=O)(c4ccccc43)C2C1=O (configuration not stated)
8	CCOC(=O)C(Cc1ccc(O)cc1)NS(=O)(=O)c1ccc2c(c1)C(=O)c1ccccc1C2=O (configuration not stated)
Compound,1,2,3,4,5,6,7,8
GIV Gai3 FP,103,112,78*,80*,100,101,113,101
HCMV UL50-53 inh,-7,-25,-86,-27,.,-2,.,.
GIV Gai FP conf,.,.,65,77,.,.,.,.
GIV Gai AS conf,.,.,3023*,46961,.,.,.,.

9	CCOC(=O)C(Cc1ccc(O)cc1)NC1=CC(=O)C(=O)c2ccccc21 (configuration not stated)
10	O=C(NCCn1c(-c2ccncc2)nc2cccnc21)Nc1cccc(Br)c1
11	CCCCOc1ccc(C2=N/C(=C\c3ccc(OC)c(OC(C)=O)c3)C(=O)O2)cc1
12	CCCCOc1ccc(C2=N/C(=C\c3ccc(OC(C)=O)c(OC(C)=O)c3)C(=O)O2)cc1
13	Cc1ccc2nc(CNCc3ccc(S(N)(=O)=O)cc3)cc(=O)n2c1
14	CC(=O)Nc1cc(OC(C)=O)c2nonc2c1OC(C)=O
15	CC(=O)Nc1nonc1NC(C)=O
16	Cc1ccc(-c2nc3s/c(=C\c4ccc(OCc5ccccc5)cc4)c(=O)n3n2)cc1
Compound,9,10,11,12,13,14,15,16
GIV Gai3 FP,82*,96,102,72*,.,-28*,107,108
HCMV UL50-53 inh,.,13,-33,-26,-32,101*,-9,.
GIV Gai FP conf,53*,.,.,69,.,16*,.,.
GIV Gai AS conf,32471,.,.,51880,.,3290*,.,.

# Shown with bars between the fields: entries from further up.
item | SMILES | GIV Gai3 FP | HCMV UL50-53 inh | GIV Gai FP conf | GIV Gai AS conf
11 | CCCCOc1ccc(C2=N/C(=C\c3ccc(OC)c(OC(C)=O)c3)C(=O)O2)cc1 | 102 | -33 | . | .
12 | CCCCOc1ccc(C2=N/C(=C\c3ccc(OC(C)=O)c(OC(C)=O)c3)C(=O)O2)cc1 | 72* | -26 | 69 | 51880
13 | Cc1ccc2nc(CNCc3ccc(S(N)(=O)=O)cc3)cc(=O)n2c1 | . | -32 | . | .

# (further entries)
17	CN(C)C(=O)c1ccc2c(c1)N(CC(=O)NCc1cccnc1)C(=O)CO2
18	O=c1cc(O)c2sc3nc(-c4ccco4)cc(C(F)(F)F)c3c2[nH]1
19	Cc1cc(C(F)(F)F)c2c(n1)sc1c(O)cc(=O)[nH]c12
20	O=C(NCC(c1ccco1)N1CCCCC1)C1(c2ccccc2)CC1 (configuration not stated)
21	O=C(Nc1cccc2nsnc12)c1[nH]nc2c1COc1ccccc1-2
22	COc1ccccc1C1C=C(c2cccnc2)Nc2nc3ccccc3n21 (configuration not stated)
23	COc1cccc(C2=CC(c3ccccc3F)n3c(nc4ccccc43)N2)c1 (configuration not stated)
24	COc1ccc(-c2ccc3cc(Cl)ccc3n2)c(OC)c1
Compound,17,18,19,20,21,22,23,24
GIV Gai3 FP,99,72*,109,.,99,69*,101,.
HCMV UL50-53 inh,-10,-64,.,-13,1,-52,.,-24
GIV Gai FP conf,.,60*,.,.,.,48*,.,.
GIV Gai AS conf,.,5742*,.,.,.,30087,.,.

25	CCN(CC)CCCC(C)Nc1c2ccc(Cl)cc2nc2ccc(OC)cc12 (configuration not stated)
26	CC(C)N(CC(=O)c1cccs1)Cc1ccccc1
27	CN1CCC(N(C)C(=O)/C=C/c2cn(-c3ccccc3)nc2-c2cccnc2)CC1
28	O=C(O)c1ccc(-n2ncc(Cl)c(Cl)c2=O)cc1
29	CC(=O)Nc1cnn(-c2ccccc2)c(=O)c1Cl
30	COc1ccccc1Nc1nc2ccc(C)cc2n2nnnc12
31	CCOC(=O)c1ccccc1Nc1nc2ccc(C)cc2n2nnnc12
32	CCCn1c(=O)/c(=C\c2ccco2)s/c1=C(/C#N)c1nc2ccccc2s1
Compound,25,26,27,28,29,30,31,32
GIV Gai3 FP,44*,.,.,78*!,104,74*,107,.
HCMV UL50-53 inh,-62,6,-38,-19,-57,-19,-6,-29
GIV Gai FP conf,41*,.,.,62,.,69,.,.
GIV Gai AS conf,32214,.,.,39055,.,51081,.,.

33	O=C(CC1SC(=O)NC1=O)Nc1cccc(NC(=O)CC2SC(=O)NC2=O)c1 (configuration not stated)
34	O=C(CC1SC(=O)NC1=O)Nc1ccc(O)cc1 (configuration not stated)
35	CC(C)OC(=O)c1sc2nc3c(cc2c1N)CN(Cc1ccccc1)CC3
36	COc1ccccc1C(=O)NC1CCN(C)CC1
37	NC(=O)C[n+]1cccc2ccccc21
38	NC(=O)C[n+]1ccc(/C=N/O)cc1
39	COC(=O)c1ccc(Oc2nc(N)nc(N(C)C)n2)cc1
40	Cc1ccc(-n2nc3c(n2)/C(=N/O)CCC3)cc1
Compound,33,34,35,36,37,38,39,40
GIV Gai3 FP,76*,103,103,102,80*,108,105,79*
HCMV UL50-53 inh,-31,-14,-14,-7,.,-80,22,47*
GIV Gai FP conf,62*,.,.,.,48*,.,.,66
GIV Gai AS conf,9767*,.,.,.,5016*,.,.,23948*
